Measured values as given in patent US7220764B2, “Sphingosine kinase inhibitors” (The Pennsylvania State University Research Foundation, priority 2002, dated 2007).

Target: T1, PI3K
T1 construct: other: human isoform; mean ± SD of triplicate experimen; activity toward PI3K (in words)
Experiment: Kinase selectivity panel: PI3K (lipid kinase)
Assay type: biochemical
Details: human isoform; mean ± SD of triplicate experiments; read-out: PI3K, concentration required to inhibit enzyme activity by 50%
Method: Thus potencies of each inhibitor were determined for human isoforms of ERK2, PI3K and PKCα. SK inhibition data is provided for comparison. Data represent the concentrations required to inhibit enzyme activity by 50%, and are the mean ±SD of triplicate experiments. Results designated as “None” indicate that no inhibition was detected at concentrations up to 60 μM.

For O=C1/C(=C/c2ccc(O)c(O)c2)Oc2ccccc21 [Compound 5, 2-(3,4-Dihydroxy-benzylidene)-benzofuran-3-one], the IC50 was 6 ± 2 µM.
